Measured values: paper PMC5148701 (Journal of medicinal chemistry, 2016)

Tested on: HEK293T cells expressing the GloSensor-22F alone (no hD2R)

Which “nonspecific cAMP inhibition in cells not expressing D2R” value does the source give for `CCCN1CCC[C@@H]2Cc3n[nH]cc3C[C@H]21` [quinpirole] here?
The value was “no inhibition”.
